We go through two compounds from US7030139B2, “Compounds” (AstraZeneca AB, priority 2001, dated 2006).

Chains of the proteins cited; added tags and fusions are not shown.
UniProt P34972, whole entry, looked up: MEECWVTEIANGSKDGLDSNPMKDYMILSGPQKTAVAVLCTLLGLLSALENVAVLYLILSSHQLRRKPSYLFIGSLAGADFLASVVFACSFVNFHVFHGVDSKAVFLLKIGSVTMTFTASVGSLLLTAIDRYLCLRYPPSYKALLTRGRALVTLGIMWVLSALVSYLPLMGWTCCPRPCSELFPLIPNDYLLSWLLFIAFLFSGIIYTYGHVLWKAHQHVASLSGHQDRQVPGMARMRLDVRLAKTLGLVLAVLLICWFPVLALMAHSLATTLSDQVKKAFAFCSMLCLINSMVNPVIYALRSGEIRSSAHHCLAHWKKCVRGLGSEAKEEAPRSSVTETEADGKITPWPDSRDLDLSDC

For test [1], the target named is T1, hCB2 (Homo sapiens, UniProt P34972). Description: hCB2 receptor binding (3H-CP55,940 displacement, membranes). The settings on record: read-out: hCB2 IC50, Table 2, human CB2 membranes.
Test [2] addresses T1, hCB2. Nature of the test: hCB2 GTPγS binding. The format is biochemical. The note with it: for EC50: read-out: hCB2 EC50, Table 2, human CB2 membranes.

The term IC50 denotes the midpoint of a concentration-inhibition curve. By EC50 is commonly meant the concentration giving half of the maximal effect. Turning to “2-[(4-Ethoxyphenyl)methyl]-N,N-diethyl-1-[[(2R)-1-methyl-2-piperidinyl methyl]-1H-benzimidazole-5-carboxamide”, the IC50 at hCB2 [1] amounted to 18 nM. Further, the “Emax (%)” value on hCB2 [2] (Table 2, maximal stimulated binding defined with 1 μM Win 55,212-2) is 106%. Moreover, the EC50 on hCB2 [2] came out at 1.7 nM.

Regarding `CCOc1ccc(C(C)c2nc3cc(N(C)C(=O)CC(C)C)ccc3n2CC2CC2)cc1` (centres unmarked) [Example 52, N-[1-(Cyclopropylmethyl)-2-[1-(4-ethoxyphenyl)ethyl]-1H-benzimidazol-5-yl]-N,3-dimethyl-butanamide], on hCB2 [1], the IC50 was found to be 22 nM. On hCB2 [2], the EC50 is 7.8 nM.
